Measurements as given in US6147100A, “Pyrrolidine derivatives having phospholipase A2 inhibitory activity” (Shionogi & Co., Ltd., priority 1997, dated 2000).

The chains behind the UniProt entries cited, without tags or fusion partners.
UniProt P47712, whole entry: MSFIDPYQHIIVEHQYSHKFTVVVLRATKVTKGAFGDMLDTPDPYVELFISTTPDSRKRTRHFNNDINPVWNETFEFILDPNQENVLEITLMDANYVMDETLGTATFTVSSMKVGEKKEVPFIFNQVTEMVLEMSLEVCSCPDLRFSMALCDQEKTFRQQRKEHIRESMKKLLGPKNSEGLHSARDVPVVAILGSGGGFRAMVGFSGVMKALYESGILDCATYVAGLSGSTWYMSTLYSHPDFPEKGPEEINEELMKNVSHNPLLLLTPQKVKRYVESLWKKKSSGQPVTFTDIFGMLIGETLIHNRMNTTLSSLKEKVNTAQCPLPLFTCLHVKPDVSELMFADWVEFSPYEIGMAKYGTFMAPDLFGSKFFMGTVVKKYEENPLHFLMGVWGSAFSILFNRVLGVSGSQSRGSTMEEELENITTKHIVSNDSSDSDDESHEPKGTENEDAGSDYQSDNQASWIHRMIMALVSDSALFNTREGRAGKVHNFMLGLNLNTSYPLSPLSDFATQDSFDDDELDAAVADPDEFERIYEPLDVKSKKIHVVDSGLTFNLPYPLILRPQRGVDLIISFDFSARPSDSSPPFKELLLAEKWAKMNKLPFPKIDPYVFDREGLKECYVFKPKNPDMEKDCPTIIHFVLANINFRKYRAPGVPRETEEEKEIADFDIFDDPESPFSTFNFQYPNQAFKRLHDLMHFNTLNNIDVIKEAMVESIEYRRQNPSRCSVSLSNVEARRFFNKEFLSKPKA

Assays:
cPLA2 = cPLA2 (Homo sapiens, UniProt P47712); experiment: cPLA2 Inhibitory Activity; assay type: biochemical; conditions: read-out: IC50 (cPLA2 inhibitory activity); 1-palmitoyl-2-[14C]-arachidonoyl-sn-glycero-3-phosphocholine 2.5 μM, sn-1,2-dioleoylglycerol 1.25 μM; pH 7.5, 15 min at 37° C.
Procedure: Test Example 1 cPLA2 Inhibitory Activity The compounds of the present invention were tested for the cPLA2 inhibitory activity according to the method disclosed in […]. Roberts, […], and J. E. Putnam, J. Biol. Chem., 1991, 266, 5268-5272 as outlined below. […] The reaction mixture includes 50 mM HEPES buffer (pH 7.5), 1 mM calcium chloride, 150 mM sodium chloride, 0.1 mg/ml bovine serum albumin, and 1.7 mM dithiothreitol. To the reaction mixture was added the compound of the present invention and the substrate solution. The reaction was allowed to start by adding an enzyme and continued for 15 min at 37° C. The fatty acids released by the reaction were extracted by the method described in V. P. Dole, and H. Meinertz, J. Biol. Chem., 1960, 235, 2595-2599 and its radiation activity was measured on a liquid scintillation counter. Control was obtained by conducting the experiment in the same manner except that a compound of the present invention was not added.

[1] = test system: production of prostaglandin E2 by human fibroblasts; experiment: Inhibition of Production of Prostaglandin E2 in Human Fibroblasts (IL-1 stimulation); conditions: read-out: IC50 (inhibition of production of prostaglandin E2); human fibroblasts under stimulation with IL-1
Procedure: Test Example 2 Inhibition of Production of Prostaglandin E2 in Human Fibroblasts.
In order to examine the availability of the composition for inhibiting cytosolic phospholipase A2 (cPLA2) on the cells, the compounds of the present invention were tested for the effect on the production of prostaglandin E2 by human fibroblasts under the stimulation with IL-1 according to the method of J. M. Dayer et al (CACHECTIN/TUMOR NECROSIS FACTOR STIMULATES COLLAGENASE AND PROSTAGLANDIN E2 PRODUCTION BY HUMAN SYNOVIAL CELLS AND DERMAL FIBROBLASTS; J. M. Dayer, B, Beutler and A, Cerami, J. EXP. Med., 1985, 162, 2163-2168.).

Row | IC50 (cPLA2) [nM] | Compound | IC50 [1] [nM]
1 | 34 | CCOc1cccc(-c2ccccc2)c1O[C@@H]1C[C@@H](CNC(=O)c2ccc(/C=C3\SC(=O)NC3=O)cc2)N(C(=O)c2ccccc2C(=O)c2ccc(F)cc2)C1 | 440
2 | 46 | O=C(/C=C/c1ccc(/C=C2\SC(=O)NC2=O)cc1)NC[C@@H]1C[C@@H](Oc2ccccc2-c2ccccc2)CN1C(=O)c1ccccc1C(=O)c1ccc(F)cc1 | 840

More lines, now with the values behind:

Row | Compound | IC50 (cPLA2) [nM] | IC50 [1] [nM]
3 | CN1CCN(c2ccccc2O[C@@H]2C[C@@H](CNC(=O)c3ccc(/C=C4\SC(=O)NC4=O)cc3)N(C(=O)c3ccccc3C(=O)c3ccc(F)cc3)C2)CC1 | 4700 | –
4 | CCOc1cccc(-c2ccccc2C(C)C)c1O[C@@H]1C[C@@H](CNC(=O)c2ccc(/C=C3\SC(=O)NC3=O)cc2)N(C(=O)c2ccccc2C(=O)c2ccc(F)cc2)C1 | 26 | 490
5 | CC(C)Oc1cccc(-c2ccccc2)c1O[C@@H]1C[C@@H](CNC(=O)c2ccc(/C=C3\SC(=O)NC3=O)cc2)N(C(=O)c2ccccc2C(=O)c2ccc(F)cc2)C1 | 46 | –
